The text below walks through data of patent US20070043091A1, “Kv1.5-BLOCKER FOR THE SELECTIVE INCREASE OF ATRIAL CONTRACTILITY AND TREATMENT OF CARDIAC INSUFFICIENCY” (SANOFI-AVENTIS DEUTSCHLAND GMBH, priority 2004, published 2007).

Sequences of proteins named here, by UniProt entry; tags and fusion partners are left off.
UniProt P22460, whole entry: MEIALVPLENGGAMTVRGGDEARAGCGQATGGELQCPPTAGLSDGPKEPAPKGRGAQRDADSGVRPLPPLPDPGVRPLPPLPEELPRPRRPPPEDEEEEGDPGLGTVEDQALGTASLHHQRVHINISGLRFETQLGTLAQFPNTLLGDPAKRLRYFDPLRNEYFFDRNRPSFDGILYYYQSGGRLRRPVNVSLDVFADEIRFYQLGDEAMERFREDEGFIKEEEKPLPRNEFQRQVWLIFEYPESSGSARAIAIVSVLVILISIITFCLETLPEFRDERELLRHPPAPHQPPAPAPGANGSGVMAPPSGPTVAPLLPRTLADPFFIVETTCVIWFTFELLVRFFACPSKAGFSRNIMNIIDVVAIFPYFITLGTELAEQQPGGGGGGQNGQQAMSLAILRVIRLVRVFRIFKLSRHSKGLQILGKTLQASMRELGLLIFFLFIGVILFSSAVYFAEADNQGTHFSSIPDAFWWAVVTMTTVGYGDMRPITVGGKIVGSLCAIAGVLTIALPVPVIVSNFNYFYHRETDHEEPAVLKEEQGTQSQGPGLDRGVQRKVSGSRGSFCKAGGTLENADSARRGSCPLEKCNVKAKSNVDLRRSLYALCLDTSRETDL

Assay [1] deals with pig left atrium. Put plainly: Effect of Kv1.5 blockers on atrial contractility in anesthetized pigs, sinus rhythm. It counts as in vivo, German Landrace pigs. As for the experimental part:
(§1) A) Test of the Effect of Kv1.5 Blockers on Atrial Contractility in Anesthetized Pigs
(§2) Material and methods: German Landrace pigs were premedicated by an intramuscular injection of 2.5-3.5 mg/kg each of xylazine, tiletamine and zolazepam in a mixing syringe. The anesthesia was induced with pentobarbital (approx. 30 mg/kg i.v.) and maintained by continuous infusion of pentobarbital (12-17 mg/kg/h).
(§3) After induction of anesthesia and after a tracheotomy, the animals were intubated and ventilated with a mixture of ambient air with 40% oxygen.
The ventilation rate and volume were governed by regularly measured blood gas and pH levels. The body temperature was continuously recorded and controlled by a heated underlay and/or red light lamp and/or warming of the breathed air to keep it constant (about 37-38° C.).
The following blood vessels of the pigs were exposed and cannulated:
External jugular vein (anesthesia infusion), carotid artery (introduction of a tip manometer catheter in the left ventricle to record the pressure there), lateral saphenous vein (dosage of test substance), epigastrica cranialis superficialis vein (fluid infusion), femoral artery (peripheral blood pressure recording) and femoral vein (introduction of MAP catheter right atrium).
The parameters responsible for the contractility are determined using two ultrasonic sensors on the left atrium (P/N JP 5-2, Triton Technology®) [references 1 and 2]. These two piezoelectric sensors are implanted in the cranio-caudal direction through punctuate incisions at the extreme edge of the atrium. The incisions were each closed with a U stitch (2-0 Vicryl®). […]
The left atrial systolic shortening (LASS) was determined from the atrial diameter at the start of the active atrial pressure curve and the minimum diameter. […] The maximum steepness of the contraction curve was determined by importing the raw data points to Microsoft Excel for calculation of the maximum steepness of the curve. In order to exclude breathing-related variations, at least 10 cardiac cycles were analyzed. […]

Assay [2] relates to pig left atrium. As to the kind of experiment: Effect on atrial contractility in anesthetized pigs after one hour of induced atrial fibrillation. It is filed as in vivo, German Landrace pigs. The settings on record: 1 mg/kg i.v., after 1 hour atrial fibrillation. The procedure: as §1, §2, §3
In a further series of experiments, the test substance was administered only after one hour of atrial fibrillation induced by persistent high-frequency stimulation (1200 beats/min) of the right atrium. In this case, the parameters of atrial contractility were recorded before/after the period of fibrillation and after administration of the test substance and compared with those after the vehicle control.
The ventilation rate and volume were governed by regularly measured blood gas and pH levels. The body temperature was continuously recorded and controlled by a heated underlay and/or red light lamp and/or warming of the breathed air to keep it constant (about 37-38° C.). […]
The parameters responsible for the contractility are determined using two ultrasonic sensors on the left atrium (P/N JP 5-2, Triton Technology®) [references 1 and 2]. […]

Another assay concerns the target T1, Human Kv1.5 channels (Homo sapiens, UniProt P22460).
T1 construct: expressed in transfected cells; host or cells: Xenopus laevis oocytes injected with Kv1.5-encoding RNA synthesized in vitro
Put plainly: Determination of the activity on the Kv1.5 channel (two-microelectrode voltage clamp, Xenopus oocytes). It is filed as cell-based. The settings on record: human Kv1.5 expressed in Xenopus oocytes, room temperature. The procedure:
Determination of the Activity on the Kv1.5 Channel Human Kv1.5 channels were expressed in xenopus oocytes. For this purpose, firstly oocytes were isolated from Xenopus laevis and defolliculated. Kv1.5-encoding RNA synthesized in vitro was then injected into these oocytes. […] The Kv1.5 channels were in this case usually activated with voltage jumps lasting 500 ms to 0 mV and 40 mV. […] These experiments were carried out at room temperature. […] The substances of the invention were tested by adding them in various concentrations to the bath solution.

Molecules are shown by their SMILES.

Regarding `COc1ccc(CC(=O)NCc2ccccc2-c2ccccc2C(=O)NCCc2cccnc2)cc1` [Example 1, N-(2-pyridin-3-ylethyl)-2′-{[2-(4-methoxyphenyl)acetylamino]-methyl}biphenyl-2-carboxamide], the “LASS index, absolute value, after administration” value with pig left atrium [1] (1 mg/kg i.v., sinus rhythm) is reported as 0.206 ± 0.017. For the same compound, the “LASS index, increase in %” value in the assay on pig left atrium [1] (1 mg/kg i.v., sinus rhythm, after vs before administration) is “+29.5%”. Besides, the “atrial function (LASS index and LACC steepness), in words” value in the assay with pig left atrium [1] (normal sinus rhythm) was “statistically significant improvement”. Moreover, in the assay on pig left atrium [2], the “LASS index, absolute values” is 0.203. The “LASS index, in % of the initial value” with pig left atrium [2] (initial value = before AF) was 116%.

Turning to `CCCCS(=O)(=O)Nc1ccccc1C(=O)N[C@H](CC)c1ccc(OC)nc1` (single isomer, unassigned) [Example 5], at Human Kv1.5 channels, the IC50 (in general, the concentration that gives 50% inhibition) was determined as 10 µM.
